ChEMBL document CHEMBL1131282, “Azepinoindole derivatives with high affinity for brain dopamine and serotonin receptors” (Bioorg Med Chem Lett, 1998)

Amino acid sequences for entries named in this document (tags omitted).
UniProt P18901, whole entry: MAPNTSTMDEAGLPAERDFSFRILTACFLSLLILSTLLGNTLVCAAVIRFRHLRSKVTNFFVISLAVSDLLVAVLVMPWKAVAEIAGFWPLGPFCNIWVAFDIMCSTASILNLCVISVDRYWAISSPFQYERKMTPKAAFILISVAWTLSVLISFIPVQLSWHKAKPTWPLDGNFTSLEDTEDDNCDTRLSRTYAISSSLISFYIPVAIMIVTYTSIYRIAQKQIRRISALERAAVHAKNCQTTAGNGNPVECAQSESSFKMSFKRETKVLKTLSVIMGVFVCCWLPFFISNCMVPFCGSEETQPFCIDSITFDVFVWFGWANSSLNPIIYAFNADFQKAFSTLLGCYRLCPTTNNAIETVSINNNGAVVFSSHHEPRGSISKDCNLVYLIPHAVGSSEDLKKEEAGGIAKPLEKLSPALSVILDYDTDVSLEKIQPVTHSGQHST

Target: D(1A) dopamine receptor (Rattus norvegicus, UniProt P18901)
Experiment: Affinity for Dopamine receptor D1

Structure (SMILES): Cc1nc2n(c(=O)c1CCN1CCC(c3noc4cc(F)ccc34)CC1)CCCC2 [RISPERIDONE]
- Ki: 22 nM
